Assay [1] concerns the target cannabinoid central type (CB1) receptor (Rattus norvegicus, UniProt P20272). The assay can be described thus: Binding assay, cannabinoid central type receptor (CB1), rat cerebellar membrane fraction, [3H]Win55212-2. The following applies: read-out: Ki value, Central receptor (C), [3H]Win55212-2 2 nM, 30° C. 90 min. The method, then:
(§1) [I] Binding Assay (in vitro)
As the sample rich in cannabinoid central type (CB1) and peripheral type (CB2) receptors, rat cerebellar membrane fraction and spleen cells were respectively used (male SD rats, 7-9 weeks old). A sample (cerebellar membrane fraction: 50 μg/ml or spleen cells: 1×10^7 cells/ml), labeled ligand ([^3 H]Win55212-2, 2 nM) and unlabeled Win55212-2 or a test compound were plated in round bottom 24 well plates, and incubated at 30° C. for 90 min in the case of cerebellar membrane fraction, and at 4° C. for 360 min in the case of spleen cells. As the assay buffer, 50 mM Tris solution containing 0.2% BSA was used for cerebellar membrane fraction, and 50 mM Tris-HBSS containing 0.2% BSA was used for spleen cells. After incubation, the samples were filtrated through a filter (Packard, Unifilter 24 GF/B) and dried. A scintillation solution (Packard, Microsint-20) was added, and the radioactivity of the samples was determined (Packard, Top count A9912V). The non-specific binding was determined by adding an excess Win55212-2 (1 μM), and specific binding was calculated by subtracting non-specific binding from the total binding obtained by adding the labeled ligand alone. […] IC50 was determined from the proportion of the specifically-bound test compounds, and the Ki value of the test compounds was calculated from IC50 and Kd value of [^3 H]Win55212-2.

Sequences of proteins named here, by UniProt entry; tags and fusion partners are left off.
UniProt P20272, whole entry: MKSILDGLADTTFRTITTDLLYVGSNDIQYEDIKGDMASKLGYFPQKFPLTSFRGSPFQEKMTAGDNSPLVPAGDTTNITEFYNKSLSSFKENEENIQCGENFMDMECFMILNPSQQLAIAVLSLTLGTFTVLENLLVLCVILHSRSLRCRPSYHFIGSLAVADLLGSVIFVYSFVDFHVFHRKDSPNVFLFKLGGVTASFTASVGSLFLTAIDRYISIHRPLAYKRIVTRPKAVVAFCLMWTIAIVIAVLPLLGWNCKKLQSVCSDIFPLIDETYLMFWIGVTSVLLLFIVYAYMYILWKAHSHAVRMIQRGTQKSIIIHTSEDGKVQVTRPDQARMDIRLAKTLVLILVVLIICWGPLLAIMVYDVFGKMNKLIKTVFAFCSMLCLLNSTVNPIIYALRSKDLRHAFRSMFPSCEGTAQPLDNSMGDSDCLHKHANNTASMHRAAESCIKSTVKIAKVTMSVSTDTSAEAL
UniProt Q9QZN9, whole entry: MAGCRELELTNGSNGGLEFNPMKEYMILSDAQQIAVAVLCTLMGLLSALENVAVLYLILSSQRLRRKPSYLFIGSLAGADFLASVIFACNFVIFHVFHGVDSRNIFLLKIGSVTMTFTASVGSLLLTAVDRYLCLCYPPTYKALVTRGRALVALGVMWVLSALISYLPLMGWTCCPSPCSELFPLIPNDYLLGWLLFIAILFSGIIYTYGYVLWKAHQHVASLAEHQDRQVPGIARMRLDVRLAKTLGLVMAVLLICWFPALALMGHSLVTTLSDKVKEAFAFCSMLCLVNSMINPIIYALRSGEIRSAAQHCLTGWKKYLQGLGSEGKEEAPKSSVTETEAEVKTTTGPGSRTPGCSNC

In assay [2] the target is cannabinoid peripheral type (CB2) receptor (Rattus norvegicus, UniProt Q9QZN9). Briefly: Binding assay, cannabinoid peripheral type receptor (CB2), rat spleen cells, [3H]Win55212-2. The following applies: for C/S: ratio of Ki central receptor (C) to Ki peripheral receptor (S); for Ki: read-out: Ki value, Peripheral receptor (S), rat spleen cells, [3H]Win55212-2 2 nM, 4° C. 360 min. Here is the method: as §1
As the sample rich in cannabinoid central type (CB1) and peripheral type (CB2) receptors, rat cerebellar membrane fraction and spleen cells were respectively used (male SD rats, 7-9 weeks old). A sample (cerebellar membrane fraction: 50 μg/ml or spleen cells: 1×10^7 cells/ml), labeled ligand ([^3 H]Win55212-2, 2 nM) and unlabeled Win55212-2 or a test compound were plated in round bottom 24 well plates, and incubated at 30° C. for 90 min in the case of cerebellar membrane fraction, and at 4° C. for 360 min in the case of spleen cells. As the assay buffer, 50 mM Tris solution containing 0.2% BSA was used for cerebellar membrane fraction, and 50 mM Tris-HBSS containing 0.2% BSA was used for spleen cells. After incubation, the samples were filtrated through a filter (Packard, Unifilter 24 GF/B) and dried. A scintillation solution (Packard, Microsint-20) was added, and the radioactivity of the samples was determined (Packard, Top count A9912V). The non-specific binding was determined by adding an excess Win55212-2 (1 μM), and specific binding was calculated by subtracting non-specific binding from the total binding obtained by adding the labeled ligand alone. The test compounds were dissolved in DMSO to the final concentration of DMSO of 0.1%. IC50 was determined from the proportion of the specifically-bound test compounds, and the Ki value of the test compounds was calculated from IC50 and Kd value of [^3 H]Win55212-2.

The test system of assay [3] is Sheep red blood cell-induced delayed type hypersensitivity. Briefly: Sheep red blood cell (SRBC)-induced delayed type hypersensitivity (DTH) model. In kind it is in vivo, female ddy mice. Conditions: po, mice, 1 h before SRBC challenge; paw volume 24 h after induction. The method, then: [III] Sheep red blood cell (SRBC)-induced delayed type hypersensitivity (DTH) model (in vivo)
Female ddy mice (6-8 weeks old) were used. On day 1, SRBC 10^7 cells were intradermally injected into the left foot pad of the mice (40 μl/foot) to immunize the mice. Five days later, the test compounds dissolved in olive oil were orally administered at 10 ml/kg. One hour later, SRBC 10^8 cells were intradermally injected into the right foot pad to induce the response. Twenty-four hours after the induction, the volume of the both paws was measured, and edema ratio was calculated by […].
(§2) In both [II] and [III], the test compounds were dissolved in DMSO and used upon dilution with olive oil (final concentration of DMSO 1%).

Assay [4] relates to Carageenan-induced paw edema. Briefly: Carageenan-induced paw edema model. In kind it is in vivo, female ddy mice. Conditions: po, mice, 1 h before carageenan; paw volume 3 h later. Here is the method:
[II] Carageenan-induced paw edema model (in vivo)
Female ddy mice (6-8 weeks old) were used. The volume of the right paw was measured (Unicom, Prethysumometer TK-101) before administration, and two hours later, the test compounds dissolved in olive oil were orally administered at 10 ml/kg. One hour after the administration, 50 μL of 1% carageenan dissolved in physiological saline was intradermally injected into the right foot pad. Three hours later, the volume of the right paw was measured and compared with that measured before the carageenan injection.
as §2

In general, Ki refers to a dissociation constant, usually derived from enzyme kinetics or from competition with a known ligand. On to `CCCCCOc1cc(C(=O)NCCc2ccc(O)cc2)ccc1N(C)C`, for which the Ki in assay [1] was 330 nM. For the same compound, in assay [2], the C/S amounted to 92 and the Ki worked out at 3.6 nM. Further, the “ED50, Sheep red blood cell-induced delayed type hypersensitivity model” value in assay [3] worked out at 3.25 mg/kg. Besides, the “ED50, Carageenan-induced paw edema model” value in assay [4] is 0.40 mg/kg.

As to `CCCCCCOc1cc(/C=C/C(=O)NCCc2ccc(O)cc2)ccc1OC`, the inhibitory constant (Ki) in assay [1] was 450 nM. Moreover, in assay [2], the C/S came out at 102 and the Ki amounted to 4.4 nM. Besides, the “ED50, Sheep red blood cell-induced delayed type hypersensitivity model” value in assay [3] is 2.45 mg/kg. Moreover, the “ED50, Carageenan-induced paw edema model” value in assay [4] turned out to be 1.20 mg/kg.

(Values after US6017919A, “Compounds and pharmaceutical use thereof” (Japan Tobacco Inc., priority 1996, dated 2000).)
